# Experimental data taken from patent US20260151384A1, “ISOQUINOLINE DERIVATIVES AS PROTEIN DEGRADERS, E7 DEGRADERS, ANTIVIRALS, TUMOR THERAPEUTICS AND IMMUNE SUPPRESSIVES” (priority 2022, published 2026).
# Chains of the proteins cited; added tags and fusions are not shown. Lines headed by an entry give the natural chain unless they say otherwise; changes in a name come on top.
# UniProt P03129: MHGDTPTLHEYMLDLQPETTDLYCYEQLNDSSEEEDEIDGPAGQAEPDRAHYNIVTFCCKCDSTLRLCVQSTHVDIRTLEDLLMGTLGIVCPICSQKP
# Molecular target: HPV16 E7 protein (Human papillomavirus type 16, UniProt P03129)
# Assay: Western blot of E7 steady state level in CaSki cells
# Format: cell-based
# Conditions: 6 h treatment, 10 μM & 5 μM
# Procedure: Reagents for Extract preparation and Western Blotting: Extraction Buffer: 2.5× (Tris 0.25M pH6.8, Glycerol 50%, SDS 10%), Gels: 4-12% gradient gels (Bolt® 4-12% Bis-Tris Plus Gel). MES Buffer: 50 mM MES, 50 mM Tris Base, 0.1% SDS, 1 mM EDTA, pH 7.3, Blotting membrane: Nitrocelulose 0.2 μm (Whatman Protran #10401394), 3MM filter paper (e.g. Whatman 3MM Chr, #3030917). Western Detection Reagents: WB Wash Buffer 1× (TBET): 20 mM Tris, 150 mM NaCl, 0.125% Tween20, pH 7.8; skim-milk powder (less than 0.15% fat content). Phosphate buffered saline (PBS) 1×: prepared as 1 L add 8 g sodium chloride (NaCl), 0.2 g potassium chloride (KCl), 1.44 g sodium phosphate, dibasic (Na2HPO4) and 0.24 g potassium phosphate, monobasic (KH2PO4) to 1 L dH2O, pH adjusted to 7.2.
# B) For cells in cell culture the following procedure for the preparation of a total cell extract is used. Freshly seeded cells are grown for 24 hours to obtain 65-75% confluency (corresponds for CaSki cells to a plating of approx. 2×10^6 cells/10 cm Ø cell culture dish). Cell culture dishes with medium are out on ice for 5 minutes. […]
# Dilute secondary anti-mouse HRP antibody in WB Blocking Buffer according to manufacturer instruction (e.g. CST Anti mouse IgG HRP-linked Ab, #7076, 1:3000). […] The membranes are developed using standard chemo luminescence (ECL) detection systems following imaging with Licor or Viber devices. […]
smiles,measurement,value
"CN1CCC(CN2C(=O)c3ccccc3[C@H](C(=O)Nc3cccc(N4CCN(C)CC4)c3)[C@H]2c2ccc(C(F)(F)F)cc2)CC1 [VSP035, (3S,4S)—N-[3-(4-methylpiperazin-1-yl)phenyl]-2-[(1-methylpiperidin-4-yl)methyl]-1-oxo-3-[4-(trifluoromethyl)phenyl]-1,2,3,4-tetrahydroisoquinoline-4-carboxamide]",decrease in the HPV16 E7 protein compared with kinase inhibitors (western blot),strongest decrease
